Measured values taken from US10682371B2, “Small molecule conjugates specifically activated in tumor microenvironment for targeting and use thereof” (priority 2014, dated 2020).

The chains behind the UniProt entries cited, without tags or fusion partners. Residues count along the entry.
UniProt P08253, 110-660: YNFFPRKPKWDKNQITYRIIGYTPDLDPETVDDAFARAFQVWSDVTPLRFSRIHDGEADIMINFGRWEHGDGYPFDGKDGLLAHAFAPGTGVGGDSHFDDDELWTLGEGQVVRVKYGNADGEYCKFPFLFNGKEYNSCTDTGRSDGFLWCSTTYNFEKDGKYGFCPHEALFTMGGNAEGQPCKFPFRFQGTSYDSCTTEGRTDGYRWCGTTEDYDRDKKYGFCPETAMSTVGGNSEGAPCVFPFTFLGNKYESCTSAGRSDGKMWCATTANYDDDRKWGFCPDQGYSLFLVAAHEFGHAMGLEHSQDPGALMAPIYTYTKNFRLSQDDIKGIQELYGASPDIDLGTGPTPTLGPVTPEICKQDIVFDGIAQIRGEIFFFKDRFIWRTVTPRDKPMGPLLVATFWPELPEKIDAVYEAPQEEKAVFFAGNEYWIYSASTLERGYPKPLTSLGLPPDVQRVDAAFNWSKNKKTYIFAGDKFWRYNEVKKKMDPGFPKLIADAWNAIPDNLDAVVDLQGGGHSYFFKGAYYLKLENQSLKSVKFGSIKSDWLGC

Key:
asparagine endopeptidase = molecular target: T1, asparagine endopeptidase (Homo sapiens, UniProt Q99538); conditions: S1-S6, 1 mg/ml; 10 μg/ml acidified asparagine endopeptidase; 37°
T1 sequence (Q99538 26-323 limits assumed): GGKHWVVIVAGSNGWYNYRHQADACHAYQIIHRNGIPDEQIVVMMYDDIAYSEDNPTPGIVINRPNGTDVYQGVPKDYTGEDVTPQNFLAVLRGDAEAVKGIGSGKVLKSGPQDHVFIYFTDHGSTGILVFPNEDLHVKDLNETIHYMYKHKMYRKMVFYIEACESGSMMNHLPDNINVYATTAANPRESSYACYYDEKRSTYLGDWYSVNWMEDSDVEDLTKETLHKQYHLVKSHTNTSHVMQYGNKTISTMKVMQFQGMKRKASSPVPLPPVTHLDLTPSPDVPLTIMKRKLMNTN
Protocol: Reduction of reactant and increase of product were detected by HPLC, thereby comparing the activation efficiency of these compounds.
When R1 is 2-(2-Methoxyethoxy)Acetyl, and R3 is Ala, activation study and efficacy study were carried out by using compounds having different cleavable linker. The study methods are identical to those in Examples 10, 11 and 12. The in vitro activation efficiency was tested by asparagine endopeptidase and the tumor inhibition rate was tested by using human breast cancer MDA-MB231 model.

[1] = test system: Human breast cancer MDA-MB231 cells; assay: animal or person; format: in vivo, nude mice; conditions: MDA-MB231, nude mice, IV 13.2 μmol/kg once weekly for four weeks
Protocol: 1) Human breast cancer MDA-MB231 cells were purchased from American type culture collection (ATCC) and identified according the specification provided by ATCC. Cells were cultivated in […] (DMEM culture medium) containing 10% fetal bovine serum at 37° C. and 5% CO2. The cells were passaged for every three days and cells within the 15th passage were used.
2) Production of tumor. 5×10^6 MDA-MB231 cells were subcutaneously injected to the back of the nude mice. Mice were randomly grouped after the tumor reached at least 100 mm^3. Then treatment began and the day on which the treatment began was day 1.
3) Course of treatment. […] The drugs were administered once weekly for four weeks.
When R1 is 2-(2-Methoxyethoxy)Acetyl, and R3 is Ala, activation study and efficacy study were carried out by using compounds having different cleavable linker. The study methods are identical to those in Examples 10, 11 and 12. The in vitro activation efficiency was tested by asparagine endopeptidase and the tumor inhibition rate was tested by using human breast cancer MDA-MB231 model. […]

D121 lung tumor cells = format: in vivo; conditions: D121 immunized C57 mice, 13.2 μmol/kg weekly, PDL1 antibody 5 μg/kg where combined
Protocol: 1) D121 lung tumor cells were purchased from ATCC. Cells were cultivated in DMEM culture solution containing 10% fetal bovine serum at 37° C. and 5% CO2. The cells were passaged for every three days and cells within the 15th passage were used.
2) Tumor immunization. 5×10^5 D121 lung cancer cells (purchased from ATCC) which were killed by irradiation were intraperitoneally injected to mice. The mice were injected for 3 times, once every two weeks. After immunization, mice were injected with tumor cells and the drugs were administered weekly for 4 weeks.
3) Production of tumor. At day 32, 10^6 live lung tumor cells were subcutaneously injected to the back of the C57 mice immunized by tumor. Treatment began when the tumor grew to 0.3-0.4 cm.
2) Tumor immunization. 5×10^5 D121 lung cancer cells (purchased from ATCC) which were killed by irradiation were intraperitoneally injected to mice. The mice were injected for 3 times, once every two weeks. After immunization, mice were injected with tumor cells and the drugs were administered weekly for 4 weeks. In table 16 below the immune group was immuned with D121 lung tumor cells and the group without dead D121 lung tumor cells was injected with physiological saline as controls.
3) Production of tumor. After immunization (4 weeks later), 10^6 live lung tumor cells were subcutaneously injected to the back of the C57 mice immunized by tumor. Treatment began when the tumor grew to 0.3-0.4 cm. Tumor size (mm^3) were noted and tumor inhibition rates were calculated.
2) Tumor immunization. 5×10^5 D121 lung cancer cells (purchased from ATCC) which were killed by irradiation were intraperitoneally injected to mice. The mice were injected for 3 times, once every two weeks. After immunization, mice were injected with tumor cells and the drugs were administered weekly for 4 weeks. In the table below the immune group was immuned with D121 lung tumor cells and the group without dead D121 lung tumor cells was injected with physiological saline as controls.
3) Production of tumor. […]

metalloprotease MMP2 = metalloprotease MMP2 (Homo sapiens, UniProt P08253)
[2] = test system: Human fibrosarcoma HT-1080 tumor tissue homogenate; format: biochemical; conditions: Human fibrosarcoma HT-1080 tumor tissue homogenate (30 μg/ml); 1 mg/ml compound
Protocol: (§1) At 37 °C, sample compounds were added into 100 μg acidized tumor tissue homogenates (pH6.0) in a concentration of 1 mg/ml.
(§2) […], sample compounds were added into 100 μg acidized tumor tissue homogenates (pH6.0) in a concentration of 1 mg/ml.
(§3) At 37 °C, sample compounds were added into 100 μg acidized tumor tissue homogenates in a concentration of 1 mg/ml.
(§4) In the experiments, at 37 °C, compounds were added into proteases in 100 μg acidized tumor tissue homogenates in a concentration of 1 mg/ml. […] Meanwhile certain compounds produced in the screening were compared and their activation efficiency in same tissue was analyzed.
(§5) At 37° C., compounds were added into proteases in 100 μg acidized tumor tissue homogenates in a concentration of 1 mg/ml.

[3] = test system: Human ovarian cancer SK-OV-3 tumor tissue homogenate; format: biochemical; conditions: Human ovarian cancer SK-OV-3 tumor tissue homogenate (30 μg/ml); 1 mg/ml compound
Protocol: as §1, §2, §3, §4, §5

[4] = test system: Human prostate cancer PC-3 tumor tissue homogenate; format: biochemical; conditions: Human prostate cancer PC-3 tumor tissue homogenate (30 μg/ml); 1 mg/ml compound
Protocol: as §1, §2, §3, §4, §5

tumor tissue homogenates = format: biochemical
Protocol: as §1, §2, §3, §4, §5

[5] = test system: Human colon cancer HT-29 tumor tissue homogenate; format: biochemical; conditions: Human colon cancer HT-29 tumor tissue homogenate (30 μg/ml); 1 mg/ml compound
Protocol: as §1, §2, §3, §4, §5

Compound	Activation Efficiencies (%) (asparagine endopeptidase)	Inhibitory rate on tumor (%) Day 10 [1] [%]	Inhibitory rate on tumor (%) Day 24 [1] [%]	Inhibitory rate on tumor Day 18 (D121 lung tumor cells)	Targeting and binding of R1 to MMP2 (metalloprotease MMP2)	Activation Efficiencies (%) [2] [%]	Activation Efficiencies (%) [3] [%]	Activation Efficiencies (%) [4] [%]	Activation efficiency by tumor tissue, in words (tumor tissue homogenates)	Activation Efficiencies (%) [5] [%]	Targeting and binding of R1 to cathepsin (cathepsin)
CCCCCOC(=O)Nc1nc(=O)n([C@@H]2O[C@H](C)[C@@H](OC(=O)OCc3ccc(NC(=O)[C@H](CC(N)=O)NC(=O)[C@H](C)NC(=O)[C@H](C)NC(=O)CCCCCCC(=O)NO)cc3)[C@H]2O)cc1F [Compound S3, 4-N—(N—(N—(N-(8-(N-hydroxylamino)-1,8-octandioic acid-1-monoacyl)-L-alanyl)-L-alanyl)-L-asparaginyl)-amino benzyl alcohol-capecitabine-carbonic acid diester]	84.8	72	100	68.64	could target and bind to metalloprotease MMP2	–	–	–	–	–	–
COCCOCC(=O)N[C@H](C(=O)N[C@@H](C)C(=O)N[C@@H](CC(N)=O)C(=O)Nc1ccc(COC(=O)N[C@H]2C[C@H](O[C@H]3C[C@](O)(C(C)=O)Cc4c(O)c5c(c(O)c43)C(=O)c3c(OC)cccc3C5=O)O[C@@H](C)[C@H]2O)cc1)C(C)O (stereo partly drawn) [Compound S4, 4-N—(N—(N—(N-2-(2-methoxyethoxy)acetyl-L-threonyl)-L-alanyl)-L-asparaginyl)-amino benzyl alcohol-daunorubicin-carbamate]	84.3	69	94	76.67	–	78.4	78.4	78.3	very high activation efficiency	–	–
COc1cccc2c1C(=O)c1c(O)c3c(c(O)c1C2=O)C[C@@](O)(C(C)=O)C[C@@H]3O[C@H]1C[C@H](NC(=O)OCc2ccc(NC(=O)[C@H](CC(N)=O)NC(=O)[C@H](C)NC(=O)[C@H](C)NC(=O)CCCCCN3C(=O)C=CC3=O)cc2)[C@H](O)[C@H](C)O1 [Compound S5, 4-N—(N—(N—(N-(6-maleimidocaproyl)-L-alanyl)-L-alanyl)-L-asparaginyl)-amino benzyl alcohol-daunorubicin-carbamate]	83.3	79	95.5	72.03	–	–	–	–	very high activation efficiency	78.4	could target and bind to cathepsin
